Data taken from patent publication US20260382605A1, “REVERSIBLE MACROCYCLIC KINASE INHIBITORS” (published 2026).
pIC50, pKd: −log10 of the molar value.

The chains behind the UniProt entries cited, without tags or fusion partners. Residues count along the entry.
UniProt Q96GD4, whole entry: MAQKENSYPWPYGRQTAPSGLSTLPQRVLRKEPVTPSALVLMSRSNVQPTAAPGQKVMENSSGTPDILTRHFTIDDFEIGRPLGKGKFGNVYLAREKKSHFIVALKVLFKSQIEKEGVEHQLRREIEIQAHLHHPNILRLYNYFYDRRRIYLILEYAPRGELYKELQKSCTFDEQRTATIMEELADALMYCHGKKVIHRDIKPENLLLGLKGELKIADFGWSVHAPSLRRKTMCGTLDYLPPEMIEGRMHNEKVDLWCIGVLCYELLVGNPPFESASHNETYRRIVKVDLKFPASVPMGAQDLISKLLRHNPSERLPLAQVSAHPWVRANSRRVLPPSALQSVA
UniProt P07333, 20-972 limits assumed: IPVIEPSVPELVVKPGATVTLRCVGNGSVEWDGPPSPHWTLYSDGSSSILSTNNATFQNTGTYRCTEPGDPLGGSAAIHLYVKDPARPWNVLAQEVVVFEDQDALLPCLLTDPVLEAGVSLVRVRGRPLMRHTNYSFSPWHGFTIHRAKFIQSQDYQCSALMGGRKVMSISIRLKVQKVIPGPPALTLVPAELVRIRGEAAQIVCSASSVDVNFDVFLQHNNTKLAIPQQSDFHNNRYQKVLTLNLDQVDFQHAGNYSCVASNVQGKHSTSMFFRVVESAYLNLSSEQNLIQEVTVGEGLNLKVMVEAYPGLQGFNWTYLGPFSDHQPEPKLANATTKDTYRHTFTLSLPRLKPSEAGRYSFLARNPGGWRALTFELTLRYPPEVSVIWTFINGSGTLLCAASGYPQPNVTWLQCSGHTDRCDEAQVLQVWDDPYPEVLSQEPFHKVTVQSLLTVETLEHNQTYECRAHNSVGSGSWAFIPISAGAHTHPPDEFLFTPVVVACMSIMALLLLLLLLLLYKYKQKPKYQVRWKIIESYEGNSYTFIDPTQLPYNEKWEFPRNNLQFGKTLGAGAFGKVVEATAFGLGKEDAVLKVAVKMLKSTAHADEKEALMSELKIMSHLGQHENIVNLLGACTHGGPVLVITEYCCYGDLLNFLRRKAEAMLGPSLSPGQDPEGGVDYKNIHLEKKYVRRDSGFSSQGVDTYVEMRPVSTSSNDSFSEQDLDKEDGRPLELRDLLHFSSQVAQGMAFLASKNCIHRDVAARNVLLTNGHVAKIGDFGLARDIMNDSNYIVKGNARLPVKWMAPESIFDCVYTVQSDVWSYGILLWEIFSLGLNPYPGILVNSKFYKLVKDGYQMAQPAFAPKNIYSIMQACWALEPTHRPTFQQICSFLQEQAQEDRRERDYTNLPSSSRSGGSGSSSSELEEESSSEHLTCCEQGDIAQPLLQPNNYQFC
UniProt P36888, 27-993 limits assumed: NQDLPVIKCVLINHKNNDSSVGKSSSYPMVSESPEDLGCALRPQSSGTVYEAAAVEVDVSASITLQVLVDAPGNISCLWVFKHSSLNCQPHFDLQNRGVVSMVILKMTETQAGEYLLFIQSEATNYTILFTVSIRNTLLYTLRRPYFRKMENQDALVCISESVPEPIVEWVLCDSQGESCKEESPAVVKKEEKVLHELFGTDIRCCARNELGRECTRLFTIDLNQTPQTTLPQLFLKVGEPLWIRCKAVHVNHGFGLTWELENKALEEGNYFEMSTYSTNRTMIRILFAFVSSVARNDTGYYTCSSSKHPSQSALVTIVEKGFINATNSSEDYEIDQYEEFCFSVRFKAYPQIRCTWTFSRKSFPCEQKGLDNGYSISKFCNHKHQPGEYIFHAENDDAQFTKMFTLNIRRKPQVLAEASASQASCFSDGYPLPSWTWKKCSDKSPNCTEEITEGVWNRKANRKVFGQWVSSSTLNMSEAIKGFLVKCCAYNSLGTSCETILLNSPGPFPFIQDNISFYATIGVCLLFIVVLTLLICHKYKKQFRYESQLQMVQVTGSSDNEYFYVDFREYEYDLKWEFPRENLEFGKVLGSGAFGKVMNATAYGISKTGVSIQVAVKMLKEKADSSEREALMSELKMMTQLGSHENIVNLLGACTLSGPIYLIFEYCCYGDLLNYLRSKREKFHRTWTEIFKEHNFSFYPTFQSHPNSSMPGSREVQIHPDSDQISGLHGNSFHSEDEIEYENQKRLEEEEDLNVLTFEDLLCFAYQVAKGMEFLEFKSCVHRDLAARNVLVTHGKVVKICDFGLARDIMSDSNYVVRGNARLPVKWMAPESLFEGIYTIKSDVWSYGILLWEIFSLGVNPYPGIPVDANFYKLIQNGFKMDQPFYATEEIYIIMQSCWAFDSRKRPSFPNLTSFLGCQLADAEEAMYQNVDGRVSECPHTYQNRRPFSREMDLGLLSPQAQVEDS
UniProt P07949, 29-1114 limits assumed: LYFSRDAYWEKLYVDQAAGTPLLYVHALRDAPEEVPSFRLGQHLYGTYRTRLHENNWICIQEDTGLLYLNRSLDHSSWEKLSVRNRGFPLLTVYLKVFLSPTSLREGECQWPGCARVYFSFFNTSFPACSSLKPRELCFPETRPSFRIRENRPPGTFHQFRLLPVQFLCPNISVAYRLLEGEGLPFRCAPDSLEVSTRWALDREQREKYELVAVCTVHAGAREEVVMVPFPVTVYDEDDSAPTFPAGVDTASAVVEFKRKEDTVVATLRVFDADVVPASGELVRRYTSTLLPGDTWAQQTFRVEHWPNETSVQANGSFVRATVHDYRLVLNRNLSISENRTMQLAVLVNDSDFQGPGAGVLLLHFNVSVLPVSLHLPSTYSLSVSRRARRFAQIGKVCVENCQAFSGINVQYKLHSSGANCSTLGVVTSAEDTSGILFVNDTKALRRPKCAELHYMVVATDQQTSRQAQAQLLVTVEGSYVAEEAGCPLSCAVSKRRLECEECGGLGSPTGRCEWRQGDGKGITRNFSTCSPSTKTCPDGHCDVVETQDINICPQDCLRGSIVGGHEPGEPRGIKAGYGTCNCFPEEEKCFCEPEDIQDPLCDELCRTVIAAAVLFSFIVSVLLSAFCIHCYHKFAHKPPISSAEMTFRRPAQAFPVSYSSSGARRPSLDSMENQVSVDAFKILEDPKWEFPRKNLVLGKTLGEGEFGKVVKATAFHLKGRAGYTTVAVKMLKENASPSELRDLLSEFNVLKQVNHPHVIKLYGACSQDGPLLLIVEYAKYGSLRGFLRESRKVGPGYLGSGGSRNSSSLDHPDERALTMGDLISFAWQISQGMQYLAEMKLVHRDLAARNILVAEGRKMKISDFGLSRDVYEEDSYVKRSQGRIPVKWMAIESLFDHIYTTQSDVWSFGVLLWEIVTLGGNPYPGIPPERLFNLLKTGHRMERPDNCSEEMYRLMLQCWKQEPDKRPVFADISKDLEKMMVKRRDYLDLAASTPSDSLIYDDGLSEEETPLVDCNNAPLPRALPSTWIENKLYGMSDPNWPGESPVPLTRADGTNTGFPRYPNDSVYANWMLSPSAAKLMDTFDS
UniProt Q06187, whole entry: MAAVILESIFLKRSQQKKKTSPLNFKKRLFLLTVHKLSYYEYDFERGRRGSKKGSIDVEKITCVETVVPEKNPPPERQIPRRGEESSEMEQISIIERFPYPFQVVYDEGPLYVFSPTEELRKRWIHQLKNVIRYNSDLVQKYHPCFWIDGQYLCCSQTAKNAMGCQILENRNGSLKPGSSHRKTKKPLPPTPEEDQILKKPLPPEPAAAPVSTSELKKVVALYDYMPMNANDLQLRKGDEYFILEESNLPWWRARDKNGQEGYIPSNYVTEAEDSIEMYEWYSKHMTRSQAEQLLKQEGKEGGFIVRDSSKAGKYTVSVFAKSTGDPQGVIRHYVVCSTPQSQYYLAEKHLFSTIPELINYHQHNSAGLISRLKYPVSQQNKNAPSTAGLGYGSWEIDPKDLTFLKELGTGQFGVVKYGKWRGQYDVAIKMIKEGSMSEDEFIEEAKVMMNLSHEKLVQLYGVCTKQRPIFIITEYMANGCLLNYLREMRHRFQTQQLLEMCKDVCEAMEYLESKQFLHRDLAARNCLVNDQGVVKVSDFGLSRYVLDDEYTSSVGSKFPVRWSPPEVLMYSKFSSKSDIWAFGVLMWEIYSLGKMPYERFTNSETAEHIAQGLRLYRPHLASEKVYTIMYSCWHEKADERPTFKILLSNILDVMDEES
UniProt P22607, 436-806 limits assumed: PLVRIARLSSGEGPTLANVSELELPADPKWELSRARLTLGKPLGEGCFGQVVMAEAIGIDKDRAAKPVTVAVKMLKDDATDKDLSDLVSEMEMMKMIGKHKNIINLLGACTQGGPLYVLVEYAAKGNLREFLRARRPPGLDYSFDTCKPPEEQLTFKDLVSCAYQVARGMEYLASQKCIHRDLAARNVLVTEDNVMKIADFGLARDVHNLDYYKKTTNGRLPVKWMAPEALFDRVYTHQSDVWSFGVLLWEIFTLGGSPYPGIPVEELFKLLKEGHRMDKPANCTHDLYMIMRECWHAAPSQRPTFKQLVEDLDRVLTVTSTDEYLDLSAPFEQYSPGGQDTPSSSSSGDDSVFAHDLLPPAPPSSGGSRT
UniProt P09619, 33-1106 limits assumed: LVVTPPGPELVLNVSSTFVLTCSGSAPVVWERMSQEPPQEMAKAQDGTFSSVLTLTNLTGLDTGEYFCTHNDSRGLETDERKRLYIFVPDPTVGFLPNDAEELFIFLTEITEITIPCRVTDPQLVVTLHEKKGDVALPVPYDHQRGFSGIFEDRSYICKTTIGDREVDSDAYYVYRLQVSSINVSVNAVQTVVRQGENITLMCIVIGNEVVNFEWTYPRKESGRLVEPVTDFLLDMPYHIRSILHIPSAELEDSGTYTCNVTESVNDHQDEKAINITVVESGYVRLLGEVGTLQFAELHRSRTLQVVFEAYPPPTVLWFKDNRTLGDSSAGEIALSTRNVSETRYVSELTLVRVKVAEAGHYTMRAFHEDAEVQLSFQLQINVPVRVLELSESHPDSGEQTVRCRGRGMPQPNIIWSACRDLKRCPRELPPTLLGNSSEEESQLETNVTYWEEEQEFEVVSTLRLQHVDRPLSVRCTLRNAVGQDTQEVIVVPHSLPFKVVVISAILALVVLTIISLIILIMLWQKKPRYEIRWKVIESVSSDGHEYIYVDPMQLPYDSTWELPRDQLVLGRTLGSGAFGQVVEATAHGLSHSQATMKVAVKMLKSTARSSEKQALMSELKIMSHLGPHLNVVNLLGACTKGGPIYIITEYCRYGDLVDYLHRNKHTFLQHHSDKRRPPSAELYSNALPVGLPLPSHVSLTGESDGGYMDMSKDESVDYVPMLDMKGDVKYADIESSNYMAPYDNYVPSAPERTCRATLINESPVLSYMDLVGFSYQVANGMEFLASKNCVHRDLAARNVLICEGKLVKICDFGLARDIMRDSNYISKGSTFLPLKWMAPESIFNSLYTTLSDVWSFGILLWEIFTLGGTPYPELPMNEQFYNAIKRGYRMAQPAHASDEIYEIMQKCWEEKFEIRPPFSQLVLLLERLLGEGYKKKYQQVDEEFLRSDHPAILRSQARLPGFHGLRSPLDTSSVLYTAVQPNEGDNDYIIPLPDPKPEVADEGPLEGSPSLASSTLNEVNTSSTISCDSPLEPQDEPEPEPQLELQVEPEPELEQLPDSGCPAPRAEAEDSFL

What was measured:
AurB = AurB (Homo sapiens, UniProt Q96GD4); experiment: Binding kinetics assay (surface plasmon resonance) AUR-B; conditions: SPR, 22 °C
From the text: (§1) Binding Kinetics Assay wt-BTK, BTK C481S, LCK, FGFR1, FLT3, PDGFR-β, FMS, LYN, MEK1, AUR-B. ITK. VEGFR, EGFR, FGFR3, AXL, c-MET, SRC, YES, ABL, RET and IGFR1 (Surface Plasmon Resonance)
(§2) Streptavidin-coated chips (Cat. No. BR100531), disposables and maintenance kits for Biacore were purchased from Cytiva (Eindhoven, The Netherlands). Biotinylated wt-BTK enzym (Carna Biosciences, cat. no. 08-480-20N), BTK C481S (Carna Biosciences, cat. no. 08-417-20N), LCK (Carna Biosciences, cat. no. 08-470-20N), FGFR1 (Carna Biosciences, cat. no. 08-435-20N), FLT3 (Carna Biosciences, cat. no. 08-454-20N), PDGFR-β (Carna Biosciences, cat. no. 08-458-20N), FMS (Carna Biosciences, cat. no. 08-455-20N), LYN (Carna Biosciences, cat. no. 08-471-20N), MEK1 (Carna Biosciences, cat. no. 07-441-10-20N), AUR-B (Carna Biosciences, cat. no. 05-402-21N), ITK (Carna Biosciences, cat. no. 08-481-20N), VEGFR (Carna Biosciences, cat. no. 08-491-20N), EGFR (Carna Biosciences, cat. no. 08-415-20N), FGFR3 (Carna Biosciences, cat. no. 08-433-20N), AXL (Carna Biosciences, cat. no. 08-407-20N), c-MET (Carna Biosciences, cat. no. 08-451-20N), SRC (Carna Biosciences, cat. no. 08-473-20N), YES (Carna Biosciences, cat. no. 08-475-20N), ABL (Carna Biosciences, cat. no. 08-401-20N), RET (Carna Biosciences, cat. no. 08-459-20N) or IGFR1 (Carna Biosciences, cat. no. 08-441-20N) were immobilized on a streptavidin-coated chip to a level of about 8000 resonance units (RU) using Biacore buffer (50 mM Tris pH 7.5, 0.05% (v/v) Tween-20, 150 mM NaCl and 5 mM MgCl2)+1 mM TCEP. Remaining streptavidin was blocked with biocytin. Immobilization was performed at 4 °C. Subsequent assay steps were conducted at 22 °C. After changing buffer to Biacore buffer with 1% (v/v) dimethylsulfoxide (DMSO), a pre-run was performed for a period of at least 30 min at a flow rate of 30 μl/min to obtain a stable surface. The kinetic constants of the compounds were determined with single cycle kinetics with five consecutive injections with an increasing compound concentration with ranges of 3.16-316 nM. Experiments were performed with an association time of 100 s per concentration and a dissociation time of 1200 s, except for compounds with a long target residence time, such as irreversible inhibitors, where dissociation time was increased. To circumvent problems of mass transport limitation, a flow rate of 30 μl/min was used. A blank run with the same conditions was performed before the compound was injected. The SPR sensorgrams were analyzed with Biacore Evaluation Software by using a method of double referencing. First the reference channel was subtracted from the channel containing immobilized protein. Subsequently, the reference curve obtained with buffer injections was subtracted. The resulting curve was fitted with a 1:1 binding model. Compounds that bound according to an induced fit model were fitted with a two-state reaction model. The kinetic constants (ka, […], KD) of duplicates were geometrically averaged. Target residence time (τ) for the 1:1 binding model was calculated from the dissociation constant kd with the formula T=1/kd. Target residence for an induced fit model was calculated as described (Tummino and Copeland, 2008).

Fms = Fms (Homo sapiens, UniProt P07333); experiment: Binding kinetics assay (surface plasmon resonance) FMS; conditions: SPR, 22 °C
From the text: as §1, §2

FLT3 = FLT3 (Homo sapiens, UniProt P36888); experiment: Binding kinetics assay (surface plasmon resonance) FLT3; conditions: FLT3, SPR, 22 °C
From the text: as §1, §2

[1] = test system: MV4-11 acute myelogenous leukemia cells; experiment: Cell proliferation assay MV4-11; conditions: read-out: IC50 value, MV4-11 cells, 72 hours
Procedure: MV4-11 acute myelogenous leukemia cells were purchased from American Type Culture Collection (cat. no. CRL-9591, ATCC). Frozen stocks were thawed and cells were diluted in IMDM cell culture medium (cat. no. 31980022, Life Technologies), supplemented with 10% (v/v) bovine calf serum and 1% penicillin/streptavidin. 1600 cells per well (in 45 μl) were seeded in a white 384-well culture plate (cat. no. 781080, Greiner Bio-One) and allowed to rest for 24 hours at 37 °C, 95% humidity, and 5% CO2. 5 μl compound solution was added to the cells and incubation was continued for 72 hours (3 days), followed by addition of 24 μl ATPlite 1Step™ (PerkinElmer, Groningen, The Netherlands) solution was added to each well. Luminescence was recorded on an Envision multimode reader. The cell signal at the start of incubation was recorded separately in order to distinguish between cell population growth and cell death. In addition, maximum growth was determined by incubation of a duplicate without compound in the presence of 0.3% DMSO. Percentage growth was used as the main y-axis signal. IC50s were fitted by non-linear regression using IDBS XLfit™ 5 using a 4-parameter logistic curve, yielding a maximum signal, minimum signal, hill-parameter and IC50.

[2] = test system: MOLM-13 acute myelogenous leukemia cells; experiment: Cell proliferation assay MOLM-13; conditions: read-out: IC50 value, MOLM-13 cells, 72 hours
Procedure: MOLM-13 acute myelogenous leukemia cells were purchased from Deutsche Sammlung von Mikroorganismen und Zellkulturen (cat. no. ACC 554, DSMZ). Frozen stocks were thawed and cells were diluted in RPMI-1640 cell culture medium (cat. no. 61870036, Life Technologies), supplemented with 10% (v/v) bovine calf serum and 1% penicillin/streptavidin. 800 cells per well (in 45 μl) were seeded in a white 384-well culture plate (cat. no. 781080, Greiner Bio-One) and allowed to rest for 24 hours at 37 °C, 95% humidity, and 5% CO2. 5 μl compound solution was added to the cells and incubation was continued for 72 hours (3 days), followed by addition of 24 μl ATPlite 1Step™ (PerkinElmer, Groningen, The Netherlands) solution was added to each well. Luminescence was recorded on an Envision multimode reader. The cell signal at the start of incubation was recorded separately in order to distinguish between cell population growth and cell death. In addition, maximum growth was determined by incubation of a duplicate without compound in the presence of 0.3% DMSO. Percentage growth was used as the main y-axis signal. IC50s were fitted by non-linear regression using IDBS XLfit™5 using a 4-parameter logistic curve, yielding a maximum signal, minimum signal, hill-parameter and IC50.

RET = RET (Homo sapiens, UniProt P07949); experiment: Binding kinetics assay (surface plasmon resonance) RET; conditions: SPR, 22 °C
From the text: as §1, §2

[3] = test system: KG-1 acute myeloid leukemia cells; experiment: Cell proliferation assay KG-1; conditions: read-out: IC50 value, KG-1 cells, 72 hours
Procedure: KG-1 acute myeloid leukemia cells were purchased from American Type Culture Collection (cat. no. CCL-246, ATCC). Frozen stocks were thawed and cells were diluted in IMDM cell culture medium (cat. no. 31980022, Life Technologies), supplemented with 20% (v/v) fetal calf serum and 1% penicillin/streptavidin. 3200 cells per well (in 45 μl) were seeded in a white 384-well culture plate (cat. no. 781080, Greiner Bio-One) and allowed to rest for 24 hours at 37 °C, 95% humidity, and 5% CO2. 5 μl compound solution was added to the cells and incubation was continued for 72 hours (3 days), followed by addition of 24 μl ATPlite 1Step™ (PerkinElmer, Groningen, The Netherlands) solution was added to each well. Luminescence was recorded on an Envision multimode reader. The cell signal at the start of incubation was recorded separately in order to distinguish between cell population growth and cell death. In addition, maximum growth was determined by incubation of a duplicate without compound in the presence of 0.3% DMSO. Percentage growth was used as the main y-axis signal.
IC50s were fitted by non-linear regression using IDBS XLfit™5 using a 4-parameter logistic curve, yielding a maximum signal, minimum signal, hill-parameter and IC50.

BTK (Act) = BTK (Act) (Homo sapiens, UniProt Q06187); experiment: Binding kinetics assay (surface plasmon resonance) wt-BTK; conditions: SPR, 22 °C
From the text: as §1, §2

[4] = test system: REC-1 mantle cell lymphoma cells; experiment: Cell proliferation assay REC-1; conditions: read-out: IC50 value, REC-1 cells, 120 hours
Procedure: REC-1 mantle cell lymphoma cells were purchased from Deutsche Sammlung von Mikroorganismen und Zellkulturen (cat. no. ACC 584, DSMZ) and cultured in RPMI-1640 cell culture medium (cat. no. 61870036, Life Technologies), supplemented with 18% (v/v) fetal bovine calf serum and 1% penicillin/streptavidin. 1200 cells per well (in 45 μl) were seeded in a white 384-well culture plate (cat. no. 781080, Greiner Bio-One) and allowed to rest for at least 5 hours at 37 °C, 95% humidity, and 5% CO2. 5 μl compound solution was added to the cells and incubation was continued for 120 hours (5 days), followed by addition of 24 μl ATPlite 1Step™ (PerkinElmer, Groningen, The Netherlands) solution was added to each well. Luminescence was recorded on an Envision multimode reader. The cell signal at the start of incubation was recorded separately in order to distinguish between cell population growth and cell death. In addition, maximum growth was determined by incubation of a duplicate without compound in the presence of 0.3% DMSO. Percentage growth was used as the main y-axis signal. IC50s were fitted by non-linear regression using IDBS XLfit™5 using a 4-parameter logistic curve, yielding a maximum signal, minimum signal, hill-parameter and IC50.

FGFR3 = FGFR3 (Homo sapiens, UniProt P22607); experiment: Binding kinetics assay (surface plasmon resonance) FGFR3; conditions: FGFR3, SPR, 22 °C
From the text: as §1, §2

PDGFrB = PDGFrB (Homo sapiens, UniProt P09619); experiment: Binding kinetics assay (surface plasmon resonance) PDGFR-β; conditions: SPR, 22 °C
From the text: as §1, §2

SMILES | pKd (FLT3) | Target residence time Tau (τ) (FLT3) | pIC50 [1] | pIC50 [2] | other results
C[C@@H]1CCn2nc(-c3ccc(NC(=O)c4cccc(C(F)(F)F)c4)cc3)c3c(N)ncc(c32)/C=C/CCOCCC(=O)N1 |  |  |  |  | pKd (AurB): 7.30 to 8.30; Target residence time Tau (τ) (AurB): A (τ between 0.2 h and 1 h); pKd (Fms): 6.30 to 7.30; Target residence time Tau (τ) (Fms): B (τ between 1 and 3 h)
CC(C)(C)c1cc(NC(=O)Nc2ccc(-c3nn4c5c(cnc(N)c35)/C=C/CCCCCCC(=O)N3CCC[C@@H]4C3)cc2)no1 | 6.30 to 7.30 | A (τ between 0.2 h and 1 h) | > 7.30 | > 7.12 | 
CC(C)(C)c1cc(NC(=O)Cc2ccc(-c3nc4n5c(cnc(N)c35)/C=C/CCOCCC(=O)N[C@@H]3CC[C@@H]4C3)cc2)no1 |  |  | > 7.30 | > 7.12 | pKd (RET): > 8.30; Target residence time Tau (τ) (RET): C (τ 3 h); pIC50 [3]: > 6.52
CN1C/C=C/c2cnc(N)c3c(-c4ccc(C(=O)Nc5cc(C(F)(F)F)ccn5)cc4)nc(n23)[C@@H]2CCCN(C2)C(=O)CCCC1 |  |  |  |  | pKd (BTK (Act)): > 8.30; Target residence time Tau (τ) (BTK (Act)): B (τ between 1 and 3 h)
COc1ccc(F)cc1C(=O)NCc1ccc(-c2nn3c4c(cnc(N)c24)/C=C/CCCCC(=O)N[C@@H]2CCC[C@@H]3C2)cc1 |  |  |  |  | Target residence time Tau (τ) (BTK (Act)): B (τ between 1 and 3 h); pIC50 [4]: > 7.30
COc1cc(C#Cc2nn3c4c(cnc(N)c24)/C=C/CCCCCCC(=O)N2CCC[C@@H]3C2)cc(OC)c1 |  |  |  |  | pKd (FGFR3): 7.30 to 8.30; Target residence time Tau (τ) (FGFR3): A (τ between 0.2 h and 1 h)
C[C@@H]1CC(=O)N[C@@H]2CCC[C@H](C2)c2nc(-c3ccc(NC(=O)Nc4cc(C(C)(C)C)on4)cc3)c3c(N)ncc(n23)/C=C/CCN1 | 6.30 to 7.30 | B (τ between 1 and 3 h) | > 7.30 | > 7.12 | 
C[C@@H]1CCn2nc(-c3ccc(NC(=O)Nc4cc(C(C)(C)C)on4)cc3)c3c(N)ncc(c32)/C=C/CCCCCC(=O)N1 | 7.30 to 8.30 | A (τ between 0.2 h and 1 h) | > 7.30 | > 7.12 | pKd (Fms): 6.30 to 7.30; Target residence time Tau (τ) (Fms): A (τ between 0.2 h and 1 h); pKd (PDGFrB): 7.30 to 8.30; Target residence time Tau (τ) (PDGFrB): A (τ between 0.2 h and 1 h)
CC(C)(C)c1cc(NC(=O)Nc2ccc(-c3nn4c5c(cnc(N)c35)/C=C/CCCCCC(=O)N[C@@H]3CCC[C@@H]4C3)cc2)no1 | 7.30 to 8.30 | C (τ 3 h) | > 7.30 | > 7.12 | 
